Assay results taken from patent US20250170130A1, “MODULATORS OF MYC FAMILY PROTO-ONCOGENE PROTEIN” (Nalo Therapeutics, priority 2022, published 2025).

The chains behind the UniProt entries cited, without tags or fusion partners. Where a name states a change or a piece, a line headed by the entry shows the natural chain unless it says otherwise.
UniProt P01106: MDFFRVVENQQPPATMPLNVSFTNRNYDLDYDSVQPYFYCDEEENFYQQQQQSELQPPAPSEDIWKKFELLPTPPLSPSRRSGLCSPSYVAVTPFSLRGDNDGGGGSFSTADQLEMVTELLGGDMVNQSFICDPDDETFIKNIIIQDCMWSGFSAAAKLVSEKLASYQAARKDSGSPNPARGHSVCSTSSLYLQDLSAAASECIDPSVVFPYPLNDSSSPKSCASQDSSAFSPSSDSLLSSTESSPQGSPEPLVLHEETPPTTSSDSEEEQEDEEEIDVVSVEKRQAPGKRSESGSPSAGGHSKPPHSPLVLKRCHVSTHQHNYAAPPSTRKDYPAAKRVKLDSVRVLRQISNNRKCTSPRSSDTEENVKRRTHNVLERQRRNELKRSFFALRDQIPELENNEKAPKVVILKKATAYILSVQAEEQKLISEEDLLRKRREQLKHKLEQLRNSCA

Assays:
MycN = target: T1, MycN (Homo sapiens, UniProt P04198); assay: Degradation of MycN protein in SK-N-BE(2) cells, JESS/Western blot of lysates; type: cell-based; conditions: SKNBE2, 24 h; for Dmax at 0.5 µM: read-out: % Degradation of MycN (SKNBE2) 24 h, 0.5 μM; for Dmax at 1 µM: read-out: % Degradation of MycN (SKNBE2) 24 h, 1 μM; for Dmax at 3 µM: read-out: % Degradation of MycN (SKNBE2) 24 h, 3 μM; for Dmax at 6 µM: read-out: % Degradation of MycN (SKNBE2) 24 h, 6 μM
T1 construct: endogenous in cells; host or cells: SK-N-BE(2)
T1 sequence (P04198 1-464): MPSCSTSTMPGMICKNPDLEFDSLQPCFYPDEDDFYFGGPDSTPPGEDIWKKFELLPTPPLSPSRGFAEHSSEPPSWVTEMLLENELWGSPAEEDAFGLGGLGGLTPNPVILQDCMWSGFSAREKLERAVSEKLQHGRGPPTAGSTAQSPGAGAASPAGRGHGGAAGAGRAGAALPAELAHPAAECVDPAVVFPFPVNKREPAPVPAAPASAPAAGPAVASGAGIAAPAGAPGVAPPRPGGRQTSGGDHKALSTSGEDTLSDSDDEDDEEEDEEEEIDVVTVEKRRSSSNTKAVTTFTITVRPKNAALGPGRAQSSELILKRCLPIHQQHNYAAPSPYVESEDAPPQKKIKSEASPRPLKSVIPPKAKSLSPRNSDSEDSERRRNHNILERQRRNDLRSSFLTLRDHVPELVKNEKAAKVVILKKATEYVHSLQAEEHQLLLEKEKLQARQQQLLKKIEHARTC
Experimental: (§1) For L363 cells (suspension), 1E6 cells were plated into each well of a 6 well plate. For SK-N-BE(2) cells (adherent), 5E5 cells were plated into each well of a 6 well dish. Cells were cultured for 24 hrs then treated with exemplary compounds at 0.1, 0.5, 1.0, 3.0 and 6.0 mM final assay concentrations plus DMSO control. All compounds were diluted to 10 mM in DMSO. Cells were treated with the compound for 24 hrs, then for both cell types, media containing cells were removed from wells into a 15 ml centrifuge tube, and remaining adherent SK-N-BE(2) cells were also scraped from the wells into the appropriate tubes. Tubes were centrifuged, cells were washed with PBS then re-centrifuged to pellet cells. A RIPA buffer cocktail was added to the cells on ice for 5 mins. Cell lysates were clarified by centrifugation and stored at −80 degrees until required. BCA assay was performed on each lysate to determine the protein concentration.
(§2) Once an appropriate lysate concentration and antibody concentration was determined, samples were screened in the JESS technology (Protein Simple, San Jose, CA—https://www.proteinsimple.com/jess.html).
(§3) Target protein antibodies (n-myc and c-myc) were detected in the chemi-luminescence channel and loading controls (tubulin and GAPDH) were detected using a Near Infra Red (NIR) labeled secondary antibody.
For SK-N-EB2 adherent cells, 5E5 cells in 1.9 mls media were plated into 6 well dishes and incubated for 24 hrs. Exemplary compounds were added (100 ul, 1 in 20 dilution in media) to each well (final assay concentration 6, 3, 1 and […]) together with DMSO control wells and incubated for 24 hrs. Cells were scrapped off the plate, centrifuged, washed with PBS, centrifuged, then a RIPA buffer cocktail added to the cells (100 ul), centrifuged and stored at −80 for later analysis. For L363 suspension cells, 1E6 cells were plated into 24 well dishes (950 ul media) and incubated for 24 hrs. Exemplary compounds were added (50 ul, 1 in 20 dilution in media) to each well (final assay concentration 6, 3, 1 and […]) together with DMSO control wells and incubated for 24 hrs. Cells were aspirated into tubes, centrifuged, washed with PBS, centrifuged, then a RIPA buffer cocktail added to the cells (100 ul), centrifuged and stored at −80 for later analysis.
(§4) For Western blot, a BCA (total protein) assay was run on all samples, these were then run in batches of 5 compounds plus control (DMSO) on each Western blot run—n-myc and c-myc were run in separate experiments in the chemiluminescence channel. Both tubulin and GAPDH were run as loading controls in all lanes in the near infra red channel.

MycC = target: T2, MycC (Homo sapiens, UniProt P01106); assay: Degradation of MycC protein in L363 cells, JESS/Western blot of lysates; type: cell-based; conditions: L-363, 24 h; for Dmax at 1 µM: read-out: % Degradation of MycC (L-363) 24 h, 1 μM; for Dmax at 3 µM: read-out: % Degradation of MycC (L-363) 24 h, 3 μM; for Dmax at 6 µM: read-out: % Degradation of MycC (L-363) 24 h, 6 μM
T2 construct: endogenous in cells; host or cells: L363
Experimental: as §1, with “Cells were cultured for 24 hrs then treated with exemplary compounds at 0.1, 0.5, 1.0, 3.0 and 6.0 mM final assay concentrations plus DMSO control.” left out
as §2, §3
For SK-N-EB2 adherent cells, 5E5 cells in 1.9 mls media were plated into 6 well dishes and incubated for 24 hrs. […] Cells were scrapped off the plate, centrifuged, washed with PBS, centrifuged, then a RIPA buffer cocktail added to the cells (100 ul), centrifuged and stored at −80 for later analysis. For L363 suspension cells, 1E6 cells were plated into […] (950 ul media) and incubated for 24 hrs. […] Cells were aspirated into tubes, centrifuged, washed with PBS, centrifuged, then a RIPA buffer cocktail added to the cells (100 ul), centrifuged and stored at −80 for later analysis.
as §4

Row | Dmax at 0.5 µM (MycN) | Dmax at 1 µM (MycN) | Dmax at 3 µM (MycN) | Dmax at 6 µM (MycN) | Dmax at 3 µM (MycC) | Dmax at 6 µM (MycC) | SMILES | Dmax at 1 µM (MycC) | Dmax at 0.5 µM (MycC; read-out: % Degradation of MycC (L-363) 24 h, 0.5 μM)
1 | < 20% | < 20% | 80 to 100% | 80 to 100% | 80 to 100% | 80 to 100% | N#CC12CC(C1)N(c1nccc(Nc3cc(C4CC4)[nH]n3)n1)C2 [Compound 186, 2-[4-[(5-cyclopropyl-1H-pyrazol-3-yl)amino]pyrimidin-2-yl]-2-azabicyclo[2.1.1]hexane-4-carbonitrile] | < 20% | –
2 | 20 to 49% | 50 to 79% | 80 to 100% | 80 to 100% | 50 to 79% | 80 to 100% | CNCC12CC(CN(c3nccc(Nc4cc(C5CC5)[nH]n4)n3)C1)C2 [Compound 184, N-(5-Cyclopropyl-1H-pyrazol-3-yl)-2-[1-(methylaminomethyl)-3-azabicyclo[3.1.1]heptan-3-yl]pyrimidin-4-amine] | – | –

Row | SMILES | Dmax at 0.5 µM (MycN) | Dmax at 1 µM (MycN) | Dmax at 3 µM (MycN) | Dmax at 6 µM (MycN) | Dmax at 3 µM (MycC) | Dmax at 6 µM (MycC) | Dmax at 1 µM (MycC) | Dmax at 0.5 µM (MycC; read-out: % Degradation of MycC (L-363) 24 h, 0.5 μM)
3 | CS(=O)(=O)C1(C#N)CCCN(c2nccc(Nc3cc(C4CC4)[nH]n3)n2)C1 (stereo not drawn) [Compound 185, 1-[4-[(5-Cyclopropyl-1H-pyrazol-3-yl)amino]pyrimidin-2-yl]-3-methylsulfonyl-piperidine-3-carbonitrile] | 80 to 100% | 80 to 100% | 80 to 100% | 80 to 100% | 80 to 100% | 80 to 100% | 80 to 100% | 80 to 100%
